pIC50: −log10 of the molar value.
Experiments:
Stability in rat plasma = type: in vitro ADME; conditions: SD rat plasma, 37° C., 20 μM
[1] = Stability in cynomolgus monkey fecal homogenate; type: in vitro ADME; conditions: 20% cynomolgus monkey fecal homogenate, 37° C., 20 μM
[2] = Stability in simulated intestinal fluid (SIF); type: in vitro ADME; conditions: 100 fold dilution of standard SIF concentration, 37° C., 20 μM
Summary of the method: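 Peptides at 20 μM final were incubated at 37 °C in SIF (potassium phosphate with pancreatin, pH 6.8), and reactions were quenched with acetonitrile/1% formic acid at time points from 0 min to 24 h. Percent remaining relative to time 0 was determined by LC-MS/MS against an internal standard, and half-life came from a first-order decay fit.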

IL-23R = target: T1, IL-23R (Homo sapiens, UniProt Q5VWK5); experiment: DB cells IL23R pSTAT3 cell assay (pStat3 HTRF); type: cell-based; conditions: IL-23R-expressing DB cells, IL-23 0.5 nM, 30 minutes
T1 construct: examines the levels of pSTAT3 in IL-23R-expressing DB cells when stimulated with IL-23; host or cells: DB cells
T1 sequence (Q5VWK5 24-629): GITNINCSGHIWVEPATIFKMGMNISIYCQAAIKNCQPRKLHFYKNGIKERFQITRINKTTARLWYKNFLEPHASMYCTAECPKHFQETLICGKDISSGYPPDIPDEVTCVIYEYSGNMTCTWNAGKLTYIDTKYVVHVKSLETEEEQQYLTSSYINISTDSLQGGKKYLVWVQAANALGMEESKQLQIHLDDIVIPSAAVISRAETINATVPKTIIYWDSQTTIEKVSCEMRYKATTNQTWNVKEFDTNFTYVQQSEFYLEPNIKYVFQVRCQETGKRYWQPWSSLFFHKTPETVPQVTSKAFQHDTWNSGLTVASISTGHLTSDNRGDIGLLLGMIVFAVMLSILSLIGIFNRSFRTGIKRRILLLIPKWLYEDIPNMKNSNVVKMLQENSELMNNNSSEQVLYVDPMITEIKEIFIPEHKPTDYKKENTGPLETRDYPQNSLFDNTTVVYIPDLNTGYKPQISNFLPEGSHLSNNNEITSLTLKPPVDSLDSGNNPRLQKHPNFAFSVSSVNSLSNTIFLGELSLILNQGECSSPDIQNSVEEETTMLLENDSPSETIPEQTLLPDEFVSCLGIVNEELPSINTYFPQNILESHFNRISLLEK
Text: Human ELISA indicates the IL23-IL23R competitive binding assay described below, Rat ELISA indicates the rat IL-23R competitive binding ELISA assay described below, and pStat3HTRF indicates the DB cells IL-23R pSTAT3 cell assay described below. The peptides depicted in Table E1A and Table E1B are cyclized via a disulfide bridge formed between two Pen residues in these peptides. The peptides depicted in Table E2 are cyclized via a thioether bond between the indicated amino acid residues. Table E2 provides an illustrative structure depicting thioether cyclization, which is indicated in the table by the term “cyclo,” with the cyclic region bracketed immediately following the term “cyclo.” For certain peptides, the residue Abu is present where indicated, whereas in other embodiments, e.g., those related to the non-cyclized form, the Abu may be referred to as a hSer(Cl) or homoSer residue.
DB Cells IL23R pSTAT3 Cell Assay
Where not shown or it is marked as “0”, data was not yet determined.

[3] = Stability in human fecal homogenate; type: in vitro ADME; conditions: 20% human fecal homogenate, 37° C., 20 μM
[4] = target: IL-23 induced IFNγ in natural killer (NK) cells (Homo sapiens, UniProt Q5VWK5); experiment: NK cell based assay (IL-23/IL-18 induced IFNγ); conditions: IL-23 at EC50 to EC75 and IL-18 10 ng/mL, IFNγ in supernatant after 20 to 24 hours
Text: Example 3: NK Cell Based Assay

[5] = Stability in simulated gastric fluid (SGF); type: in vitro ADME; conditions: pepsin, pH=2, 37° C., 20 μM peptide
Experimental: Studies were carried out in simulated intestinal fluid (SIF) and simulated gastric fluid (SGF) to evaluate gastric stability of the peptide inhibitors of the present invention. In addition, studies were carried out to assess redox stability of the peptide inhibitors of the present invention.
SGF was prepared by adding 20 mg NaCl, 32 mg porcine pepsin (MP Biochemicals, catalog 02102599), and 700 HCl to 10 ml water (final pH=2). Aliquots of SGF (0.5 ml each) were pre-warmed at 37° C. To start the reaction, 1 μl of peptide stock solution (10 mM in DMSO) was added to 0.5 ml SGF and thoroughly mixed such that the final peptide concentration was 20 μM. The reactions were incubated at 37° C. with gentle shaking. At each time point (0, 15, 30, 60 min) 50 μl aliquots were removed and added to 200 ul acetonitrile containing 0.1% formic acid to quench the reaction. Samples are stored at 4° C. until the end of the experiment and centrifuged at 10,000 rpm for 5 minutes. Aliquots of the supernatant were removed, diluted 1:1 into distilled water containing internal standard, and analyzed by LCMS/MS. Percent remaining at each timepoint was calculated based on the peak area response ratio of test to compound to internal standard. Time 0 was set to 100%, and all later timepoints were calculated relative to time 0. Half-lives were calculated by fitting to a first-order exponential decay equation using GraphPad.

[6] = target: IL-23 stimulated phosphorylated STAT3 in PBMCs (Homo sapiens, UniProt Q5VWK5); experiment: PBMC pSTAT3 assay; type: cell-based; conditions: PBMCs from healthy donors, IL-23 5 ng/mL, 30 minutes

Substance | t½: Rat Plasma EDTA (Stability in rat plasma) [h] | t½: Monkey Feces anaerobic [1] [h] | SIF t½ [2] [h] | pIC50 (IL-23R) | t½: Human Feces anaerobic [3] [h] | pIC50 [4] | SGF t½ [5] [h] | pIC50 [6]
Ac-[Abu]-Q-T-[W(7-Me)]-[Lys(Ac)]-[Cys]-Phe[4-(2-aminoethoxy)]-[2-Nal]-[a-MeLys]-[Lys(Ac)]-N-[(D)Lys]-[Sarc]-NH2 [Peptide 17] | >24.0 | 11.1 | 6.4 | 9.10 | 24.5 | 8.58 | – | –
Ac-[Abu]-Q-T-[W(7-Ph)]-Q-[Cys]-Phe[4-(2-aminoethoxy)]-[2-Nal]-[THP]-E-N-[3Pal]-[Sarc]-NH2 [Peptide 134] | >24.0 | – | >24.0 | – | – | – | >24.0 | –
Ac-[Abu]-Q-T-[W(7-Ph)]-Q-[Cys]-Phe[4-(2-aminoethoxy)]-[2-Nal]-[a-MeLys]-[Lys(Ac)]-N-[3Pal]-[Sarc]-NH2 [Peptide 135] | >24.0 | – | 11.7 | – | – | – | >24.0 | –
Ac-[Abu]-Q-T-[W(7-Ph)]-[Lys(Ac)]-[Cys]-Phe[4-(2-aminoethoxy)]-[2-Nal]-[a-MeLys]-[Lys(Ac)]-N-[(D)Lys]-[Sarc]-NH2 [Peptide 18] | >24.0 | 19.6 | 15.1 | 8.96 | >24.0 | 8.19 | – | –
Ac-[Pen]-N-T-W-[Lys(Ac)]-[Pen]-Phe[4-(2-aminoethoxy)]-[2-Nal]-[Acvc]-E-N-[3Pal]-[Sarc]-NH2 [Peptide 159] | – | – | – | 9.77 | – | 10.38 | – | 10.77
Ac-[Pen]-N-T-[W(7-(2-Nal))]-[Lys(Ac)]-[Pen]-Phe[4-(2-aminoethoxy)]-[2-Nal]-[THP]-E-N-H-[Sarc]-NH2 [Peptide 67] | >24.0 | >24.0 | >24.0 | – | >24.0 | 9.11 | >24.0 | –
Ac-[Pen]-N-T-[W(7-Me)]-[Lys(Ac)]-[Pen]-Phe[4-(2-aminoethoxy)]-[2-Nal]-[THP]-E-N-H-P-NH2 [Peptide 66] | >24.0 | 4.7 | 21.8 | – | 4 | 9.06 | >24.0 | –
Ac-[Pen]-N-T-[W(7-Me)]-[Lys(Ac)]-[Pen]-Phe[4-(2-aminoethoxy)]-[2-Nal]-[THP]-E-N-H-[(D)NMeTyr]-NH2 [Peptide 57] | >24.0 | >24.0 | >24.0 | 9.59 | >24.0 | 8.77 | – | –
Ac-[Pen]-N-T-[W(7-Me)]-[Lys(Ac)]-[Pen]-Phe[4-(2-aminoethoxy)]-[2-Nal]-[THP]-E-N-[3Pal]-[(D)NMeTyr]-NH2 [Peptide 121] | >24.0 | – | >24.0 | 10.37 | – | 10.40 | – | –
Ac-[Pen]-N-T-[W(7-Me)]-[Lys(Ac)]-[Pen]-Phe[4-(2-aminoethoxy)]-[2-Nal]-[THP]-E-S-H-[Sarc]-NH2 [Peptide 54] | >24.0 | 14.5 | >24.0 | – | 9.4 | 8.79 | >24.0 | –
Ac-[Pen]-N-T-[W(7-Me)]-[Lys(Ac)]-[Pen]-Phe[4-(2-aminoethoxy)]-[2-Nal]-[THP]-E-S-[3Pal]-[Sarc]-NH2 [Peptide 125] | >24.0 | – | 24.5 | 10.40 | – | 10.00 | – | –
Ac-[Pen]-N-T-[W(7-Me)]-[Lys(Ac)]-[Pen]-Phe[4-(2-aminoethoxy)]-[2-Nal]-[a-MeLys]-[Lys(Ac)]-N-[3Pal]-[(D)NMeTyr]-NH2 [Peptide 120] | >24.0 | – | >24.0 | 10.18 | – | 10.29 | – | –
Ac-[Pen]-N-T-[W(7-Me)]-[Lys(bAla)]-[Pen]-Phe[4-(2-aminoethoxy)]-[2-Nal]-[a-MeLys]-[Lys(Ac)]-N-H-[Sarc]-NH2 [Peptide 31] | >24.0 | 17 | >24.0 | 9.38 | 5.4 | – | – | –
Ac-[Pen]-N-T-[W(7-Ph)]-[Lys(Ac)]-[Pen]-Phe[4-(2-aminoethoxy)]-[2-Nal]-[THP]-E-S-H-[Sarc]-NH2 [Peptide 59] | >24.0 | 19.9 | >24.0 | 9.44 | 20.7 | 8.77 | – | –
Ac-[Pen]-N-T-[W(7-imidazopyridinyl)]-[Lys(Ac)]-[Pen]-Phe[4-(2-aminoethoxy)]-[2-Nal]-[THP]-E-N-[3Pal]-[Sarc]-NH2 [Peptide 144] | >24.0 | >24.0 | >24.0 | – | >24.0 | – | >24.0 | –
Ac-[Pen]-N-T-[W(7-pyrimidin-5-yl)]-[Lys(Ac)]-[Pen]-Phe[4-(2-aminoethoxy)]-[2-Nal]-[THP]-E-N-[3Pal]-[Sarc]-NH2 [Peptide 143] | >24.0 | >24.0 | >24.0 | – | >24.0 | – | >24.0 | –
Ac-[Pen]-S-T-[W(7-Me)]-[Lys(Ac)]-[Pen]-Phe[4-(2-aminoethoxy)]-[2-Nal]-[THP]-E-N-H-[Sarc]-NH2 [Peptide 55] | >24.0 | 19.5 | 21.4 | 9.69 | 13 | 8.94 | – | –
Ac-[Pen]-S-T-[W(7-Me)]-[Lys(Ac)]-[Pen]-Phe[4-(2-aminoethoxy)]-[2-Nal]-[THP]-E-N-[3Pal]-[Sarc]-NH2 [Peptide 132] | >24.0 | – | >24.0 | 10.27 | – | 10.34 | – | –
Ac-[Pen]-S-T-[W(7-Me)]-[Lys(Ac)]-[Pen]-Phe[4-(2-aminoethoxy)]-[2-Nal]-[THP]-E-S-H-[Sarc]-NH2 [Peptide 56] | >24.0 | 12.6 | 24.1 | 9.17 | 7.9 | 8.36 | – | –
Ac-[Pen]-S-T-[W(7-Me)]-[Lys(Ac)]-[Pen]-Phe[4-(2-aminoethoxy)]-[2-Nal]-[THP]-E-S-[3Pal]-[Sarc]-NH2 [Peptide 124] | >24.0 | – | 18.5 | 10.64 | – | 10.06 | – | –
